# Measurements published in patent US8461184B2, “Sulphur containing pyrazole derivatives as selective cannabinoid CB1 receptor antagonists” (Solvay Pharmaceuticals B.V., priority 2006, dated 2013).
# By UniProt entry, the sequences of proteins in these tests, tags left out.
# UniProt P20272, whole entry: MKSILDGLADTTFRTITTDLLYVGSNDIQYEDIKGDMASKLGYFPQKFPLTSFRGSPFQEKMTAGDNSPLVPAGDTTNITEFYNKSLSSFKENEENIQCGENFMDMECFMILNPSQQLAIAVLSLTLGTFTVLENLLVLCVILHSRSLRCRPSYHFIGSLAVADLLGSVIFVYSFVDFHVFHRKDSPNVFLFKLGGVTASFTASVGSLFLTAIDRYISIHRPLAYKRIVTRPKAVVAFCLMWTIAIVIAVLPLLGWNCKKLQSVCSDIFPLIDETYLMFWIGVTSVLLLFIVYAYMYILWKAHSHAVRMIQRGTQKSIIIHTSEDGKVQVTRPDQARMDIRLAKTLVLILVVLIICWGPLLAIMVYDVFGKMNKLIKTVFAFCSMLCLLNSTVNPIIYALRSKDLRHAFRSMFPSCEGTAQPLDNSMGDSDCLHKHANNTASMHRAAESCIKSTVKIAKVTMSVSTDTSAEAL
# Biological target: T1, CB1 receptor (Rattus norvegicus, UniProt P20272)
# T1 construct: from tissue; host or cells: whole animal: male normotensive rats (Harlan)
# Experiment: CP-55,940 induced hypotension in the rat
# Type: in vivo
# Conditions: read-out: Blood pressure (rat) ED50
smiles,measurement,value
"Cc1c(C(=O)NN2CCCCC2)nn(-c2ccc(Cl)cc2Cl)c1-c1ccc(Cl)cc1 [rimonabant, reference compound]",ED50,3.2 mg/kg
